Only some compounds are listed: those with a hit (about 16% of all), similar ones and a draw of the others.
TDP1 block: inhibitors of human tyrosyl-DNA phosphodiesterase TDP1; recombinant TDP1, AlphaScreen DNA substrate cleavage; actives 0.28% (n = 350,000); Q9NUW8; Potency, µM (series often up to 130 µM), for the others: top-dose activity change, negative = inhibition, hits mostly inhibitors; note: potency is the fitted concentration of half-maximal effect; % is set by controls: 0 for no effect and ±100 for the full control effect; nearly all actives have a fitted effect of over 40% in size
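AlphaScreen read-out: signal falls as enzyme removes the 3' tyrosine-FITC from a 5'-biotinylated DNA oligo (15 nM, 5 min, RT). Enzyme was E. coli-made recombinant Tdp1 at 1 nM, exposed to compound for 15 min beforehand; beads 10 ug/ml, 10 min.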
DT40 TDP1 no CPT: qHTS for Inhibitors of human tyrosyl-DNA phosphodiesterase 1 (TDP1): qHTS in cells in absence of CPT | DT40 Tdp1-/- hTDP1 cells, no CPT, ATP luminescence, 48 h | Potency, µM (doses to about 46.2 µM), without a hit: at the top dose activity change, negative = growth inhibition, most hits filed as inhibitors | actives 15% (n = 420,000) | AID 686978, 2013; note: potency is the fitted concentration of half-maximal effect; % is set by controls: 0 for no effect and ±100 for the full control effect; nearly all actives have a fitted effect of over 55% in size
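Growth kinetics read by CellTiter-Glo luminescence after ≥48 hr at 37 °C. Cells: DT40 Tdp1-/- stably carrying human TDP1, 400 per well, compound exposure in the absence of CPT (DMSO vehicle).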
uPA surface inh: cell surface uPA generation inhibition | Potency, µM (highest dose often 38.3 µM), for inactives: top-dose activity change, negative = inhibition, hits mostly inhibitors | actives 0.31% (n = 330,000) | AID 540303 | cell surface uPA generation assay, qHTS; active = well fitted inhibition curve with a large enough effect; inconclusive = small, poorly fitted or top-dose-only effect; inactive = no such curve, though single readings can be large or run the other way; tested in mouse RAW 264.7 cells; note: potency is the fitted concentration of half-maximal effect; % is set by controls: 0 for no effect and ±100 for the full control effect; nearly all actives have a fitted effect of over 55% in size
miR-21 reporter: raises the signal of a miR-21 reporter; Potency, µM (doses to about 38.3 µM), inactives show top-dose reporter change, positive = more light; HeLa miR-21 FLuc reporter, luciferase, 48 h; AID 2288; 340,000 tested, under 10 active; active = well fitted rising curve with a large enough effect; inconclusive = small, poorly fitted or top-dose-only effect; inactive = no such curve, though single readings can be large or run the other way;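 further: % of control where 0% means no effect; miR-21 action dims this reporter so a rising signal means less miR-21 action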
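Using DMEM plus 10% FBS, HeLa miR-21-FLuc cells are incubated with test compounds (final up to about 40uM) for 48 hours; firefly luciferase signal is then imaged following reagent-mediated lysis.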
DT40 TDP1 CPT: DT40-hTDP1 cell growth loss with CPT; chicken DT40 Tdp1-/-;hTDP1 cells + 20 nM CPT, ATP luminescence, 48 h; Potency, µM (doses to about 46.2 µM), for inactives: top-dose activity change, negative = growth inhibition, actives largely listed as inhibitors; actives 12% (n = 420,000); note: potency is the fitted concentration of half-maximal effect; % is set by controls: 0 for no effect and ±100 for the full control effect; nearly all actives have a fitted effect of over 55% in size
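Chicken DT40 Tdp1-/- cells stably complemented with human TDP1 were seeded at 400 cells/well in medium containing 20 nM camptothecin, exposed to pin-transferred compounds, and grown at 37 °C for at least 48 hr. Viability was read as ATP luminescence.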
Active calls of the source: *; u = inconclusive; x = no result given; ! = not confirmed by another sample; [ ] = another dose, or the depositor's remark. Unless noted, calls come from the whole dose curve; as a rule, active = well fitted curve in the direction sought with a large enough effect; inconclusive = small, poorly fitted or top-dose-only effect, or another doubt; inactive = no such curve, though single readings can be large; an effect the other way counts as inactive or inconclusive.

1: Cc1cccc(OC(=O)Cn2c(C(F)(F)F)nc3ccccc32)c1
2: CC1CCC(C(C)C)C(OC(=O)Cn2c(-c3ccccc3)[n+](C)c3ccccc32)C1 (centres undefined)
3: Cc1cccc(OCc2n(CC(=O)OC3CC(C)CCC3C(C)C)c3ccccc3[n+]2C)c1 (centres undefined)
4: CCOc1cc(CNC2CCCC2)cc(Cl)c1OCc1ccccc1
5: COc1ccc2cc(C3OCCO3)c(Cl)nc2c1
6: Cc1ccc(CNC(=O)Cc2coc3cc(C)cc(C)c23)cc1
7: CC1(C)CC(C(CC(=O)O)c2ccccc2)CCO1 (centres undefined)
8: CC1(C)CC(C(CC(=O)Nc2nccs2)c2ccccc2)CCO1 (centres undefined)
entry no.	1	2	3	4	5	6	7	8
TDP1 block	-8%	6%	2%	-2%	-3%	2%	4%	-4%
DT40 TDP1 no CPT	u	0.46µM*	5.8µM*	u	-10%	u	1%	18µM*
uPA surface inh	-2%	4.5µM*!	-17%	-3%	-6%	x	-4%	-2%
miR-21 reporter	0%	u	u	29%	-48%	-10%	1%	0%
DT40 TDP1 CPT	u	0.52µM*	5.2µM*	u	-1%	-3%	0%	u

9: CCCN(CCC)C(=O)CC(c1ccccc1)C1CCOC(C)(C)C1 (centres undefined)
10: CCCc1cc(=O)oc2c(CN3CCN(C)CC3)c(O)ccc12
11: O=C(Nc1ccc(S(=O)(=O)N2CCCCC2)cc1)c1ccccc1Cl
12: CN1CCN(S(=O)(=O)c2ccc(NC(=O)c3ccccc3Cl)cc2)CC1
13: Cc1nnsc1C(=O)Nc1ccc(S(=O)(=O)N2CCCCC2)cc1
14: N#CC(C#N)=NNc1ccc(S(=O)(=O)N2CCCCC2)cc1
15: O=C(Nc1ccccc1C(=O)O)c1ccc(Cl)c(S(=O)(=O)N2CCOCC2)c1
16: O=C(Nc1ccccc1C(=O)O)c1cc(S(=O)(=O)N2CCCCC2)c(Cl)cc1Cl
entry no.	9	10	11	12	13	14	15	16
TDP1 block	-3%	x	4%	x	0%	8%	4%	7%
DT40 TDP1 no CPT	23µM*	22%	26µM*	-1%	u	16µM*	u	12µM*
uPA surface inh	3%	1%	6%	0%	-2%	1%	0%	-1%
miR-21 reporter	-1%	3%	-3%	-2%	6%	1%	6%	10%
DT40 TDP1 CPT	u	-12%	u	12%	21µM*	u	u	23µM*

17: CCc1nc2ccc(C(=O)N3CCN(C(C)=O)CC3)cn2c1N(CC)C(C)=O
18: COc1cc(C2SC[C@H]3C(=O)N(c4ccccc4)C(=O)N23)cc(OC)c1OC (some centres undefined)
19: O=C(OCC(=O)N1CCCC1)c1cc(=O)c2ccccc2o1
20: CC(NC(=O)COC(=O)c1nc(Cl)ccc1Cl)c1ccccc1 (centres undefined)
21: O=C(CS(=O)(=O)c1cccc2nsnc12)Nc1ccccc1Cl
22: Cc1cc(OCCn2ccnc2)ccc1C(C)C
23: CCOc1ccccc1C(=O)OC(C)C(=O)Nc1ccc(S(=O)(=O)N2CCCC2)cc1 (centres undefined)
24: CCS(=O)c1ccccc1C(=O)OC(C)C(=O)Nc1ccc(S(=O)(=O)N2CCCC2)cc1 (centres undefined)
entry no.	17	18	19	20	21	22	23	24
TDP1 block	x	-4%	1%	-1%	10%	5%	0%	x
DT40 TDP1 no CPT	-10%	u	-6%	1%	-24%	u	u	u
uPA surface inh	x	x	-5%	0%	x	6%	11%	-2%
miR-21 reporter	x	-2%	x	x	-9%	-5%	x	x
DT40 TDP1 CPT	8%	-26%	-3%	5%	2%	-22%	-23%	13µM*

Record cards, from the list above. Values in the order: TDP1 block | DT40 TDP1 no CPT | uPA surface inh | miR-21 reporter | DT40 TDP1 CPT
CCS(=O)c1ccccc1C(=O)OC(C)C(=O)Nc1ccc(S(=O)(=O)N2CCCC2)cc1 (centres undefined) as listed: x | u | -2% | x | 13µM*
CC(NC(=O)COC(=O)c1nc(Cl)ccc1Cl)c1ccccc1 (centres undefined) as listed: -1% | 1% | 0% | x | 5%
O=C(OCC(=O)N1CCCC1)c1cc(=O)c2ccccc2o1 as listed: 1% | -6% | -5% | x | -3%
O=C(CS(=O)(=O)c1cccc2nsnc12)Nc1ccccc1Cl as listed: 10% | -24% | x | -9% | 2%

Later entries
25: COc1ccccc1NC(=O)c1ccc(S(=O)(=O)N2CCCC2)cc1
26: COc1cc(S(=O)(=O)N2CCCCC2)ccc1NC(=O)c1ccccc1Cl
27: COc1ccccc1NS(=O)(=O)c1ccc(C)c(NC(=O)c2ccc(S(=O)(=O)N3CCCCCC3)cc2)c1
28: COc1ccc(Nc2nc3cc(C)ccc3cc2C#N)c(OC)c1
29: COc1ccc(Nc2nc(-c3ccccc3)nc3ccccc23)c(OC)c1
30: COc1cccc(Oc2nc(-c3ccncc3)nc3ccccc23)c1
31: N#Cc1cccc(-c2nc(Nc3ccncc3)c3ccccc3n2)c1
32: Fc1cccc(Nc2nc(-c3ccncc3)nc3ccccc23)c1
entry no.	25	26	27	28	29	30	31	32
TDP1 block	4%	2%	-2%	5%	u	-3%	7%[56.1 µM]	5%
DT40 TDP1 no CPT	-26%	16µM*	21µM*	0.029µM*	21µM*	u	2.9µM*	x
uPA surface inh	13%	5%	-10%	u	2%	9%	x	9%
miR-21 reporter	-2%	-3%	23%	24%	-3%	-1%	x	-10%
DT40 TDP1 CPT	-2%	16µM*	u	1.2µM*	u	15µM*	2.6µM*	x

33: COc1ccc(Nc2nc3cc(C)ccc3cc2C#N)cc1
34: COc1ccccc1Nc1nc(-c2ccccc2)nc2ccccc12
35: COc1ccc(Oc2nc(-c3ccncc3)nc3ccccc23)cc1
36: Cc1cccc(C(=O)Nc2nc(-c3nnn(-c4cc(C)ccc4C)c3C)ns2)c1
37: O=C1CCCN1Cc1ncnn1-c1ccccc1
38: COc1cc(NC(=O)c2ncn(-c3ccccc3)n2)cc(OC)c1
39: COc1cccc(Nc2nc(-c3ccccc3O)nc3ccccc23)c1
40: COc1ccc(Nc2nc(N3CCN(S(=O)(=O)N(C)C)CC3)nc3ccccc23)cc1
entry no.	33	34	35	36	37	38	39	40
TDP1 block	x	x	5%	3%	2%	8%	x	x
DT40 TDP1 no CPT	-24%	u	u	u	-3%	u	u	8.2µM*
uPA surface inh	-2%	-29%	-1%	x	3%	x	-4%	-20%
miR-21 reporter	-9%	-2%	0%	u	-4%	-58%	-6%	28%
DT40 TDP1 CPT	u	u	-3%	u	-2%	u	u	12µM*

41: COc1cccc(Nc2nc(-c3ccccc3)nc3ccccc23)c1
42: COc1ccc(Nc2nc(-c3ccccc3O)nc3ccccc23)cc1
43: COc1ccc(Nc2nc(-c3ccccc3F)nc3ccccc23)cc1OC
44: COc1cccc(C2CC(c3cccs3)=NN2C(=O)CCC(=O)O)c1OC (centres undefined)
45: Cc1ccc(CNC(=O)c2ccc3c(c2)N(Cc2ccccc2)C(=O)c2ccccc2S3(=O)=O)cc1
46: COc1ccc(OC)c(Nc2nc(-c3ccncc3)nc3ccccc23)c1
47: COc1ccc(Nc2nc(-c3ccncc3)nc3ccccc23)cc1
48: COc1ccc(OC)c(Nc2nc(-c3ccccc3O)nc3ccccc23)c1
entry no.	41	42	43	44	45	46	47	48
TDP1 block	x	x	10%	x	5%	x	x	5%
DT40 TDP1 no CPT	u	18µM*	15µM*	-12%	u	7.3µM*	10µM*	u
uPA surface inh	3%	-12%	u	4%	x	1%	5%	-2%
miR-21 reporter	8%	12%	9%	-22%	0%	7%	2%	-1%
DT40 TDP1 CPT	23µM*	u	15µM*	21%	-21%	18µM*	21µM*	-15%

Bioassay records: PubChem BioAssay, National Center for Advancing Translational Sciences (NCATS)
